Experimental data: PMC4537157 (PLoS ONE, 2015)

Assays:
Format in all cases: cell-based
human newborn cord blood = assay: Whole blood cytokine assay (TNF, IL-1β ELISA), newborn cord blood; conditions: for IL-1β production / TNF-α production: Newborn blood, 6 h
Procedure: (§1) Assessment of TLRA activity in whole blood was completed as previously described. […] Vehicle (DMSO) was added separately as a control. Suspensions containing 200 μl/well were gently mixed by pipetting and incubating for 6 h at 37°C in a humidified incubator at 5% CO2. After culture, plates were centrifuged at 500 x g and 100–150 μl of supernatant was carefully removed by pipetting without disturbing the cell pellet. Supernatants derived from human leukocyte stimulations were assayed by enzyme-linked immunoabsorbent assay (ELISA) for TNF (BD Biosciences, San Jose, CA, USA) and IL-1β (eBiosciences, San Diego, CA). Experiments were performed in triplicates.
(§2) Compound concentrations are shown in μM. Data are shown as mean ± SEM of n = 6–8.
(§3) Compound concentrations are shown in μM/ml. Cytokine production is shown as pg/ml. (PDF) Click here for additional data file.

[1] = tested on: human adult peripheral blood; assay: Whole blood cytokine assay (TNF, IL-1β ELISA), adult peripheral blood; conditions: for IL-1β production / TNF-α production: Adult blood, 6 h
Procedure: as §1, §2, §3

[2] = tested on: human newborn and adult leukocytes; assay: Whole blood and MoDC assays, overall potency as summarised in the discussion; conditions: Leukocyte
Procedure: as §1

human TLR7 = biological target: T1, human TLR7 (Homo sapiens, UniProt Q9NYK1); assay: NF-κB induction in HEK-Blue reporter cells transfected with human TLR7; conditions: HEK-293 cells transfected with human TLR7, SEAP reporter, 18–24 h; read-out: EC50, half maximal activation of NF-κB (hTLR-7) (converted)
T1 construct: host or cells: HEK293 (HEK-Blue)
T1 sequence (Q9NYK1 27-1049): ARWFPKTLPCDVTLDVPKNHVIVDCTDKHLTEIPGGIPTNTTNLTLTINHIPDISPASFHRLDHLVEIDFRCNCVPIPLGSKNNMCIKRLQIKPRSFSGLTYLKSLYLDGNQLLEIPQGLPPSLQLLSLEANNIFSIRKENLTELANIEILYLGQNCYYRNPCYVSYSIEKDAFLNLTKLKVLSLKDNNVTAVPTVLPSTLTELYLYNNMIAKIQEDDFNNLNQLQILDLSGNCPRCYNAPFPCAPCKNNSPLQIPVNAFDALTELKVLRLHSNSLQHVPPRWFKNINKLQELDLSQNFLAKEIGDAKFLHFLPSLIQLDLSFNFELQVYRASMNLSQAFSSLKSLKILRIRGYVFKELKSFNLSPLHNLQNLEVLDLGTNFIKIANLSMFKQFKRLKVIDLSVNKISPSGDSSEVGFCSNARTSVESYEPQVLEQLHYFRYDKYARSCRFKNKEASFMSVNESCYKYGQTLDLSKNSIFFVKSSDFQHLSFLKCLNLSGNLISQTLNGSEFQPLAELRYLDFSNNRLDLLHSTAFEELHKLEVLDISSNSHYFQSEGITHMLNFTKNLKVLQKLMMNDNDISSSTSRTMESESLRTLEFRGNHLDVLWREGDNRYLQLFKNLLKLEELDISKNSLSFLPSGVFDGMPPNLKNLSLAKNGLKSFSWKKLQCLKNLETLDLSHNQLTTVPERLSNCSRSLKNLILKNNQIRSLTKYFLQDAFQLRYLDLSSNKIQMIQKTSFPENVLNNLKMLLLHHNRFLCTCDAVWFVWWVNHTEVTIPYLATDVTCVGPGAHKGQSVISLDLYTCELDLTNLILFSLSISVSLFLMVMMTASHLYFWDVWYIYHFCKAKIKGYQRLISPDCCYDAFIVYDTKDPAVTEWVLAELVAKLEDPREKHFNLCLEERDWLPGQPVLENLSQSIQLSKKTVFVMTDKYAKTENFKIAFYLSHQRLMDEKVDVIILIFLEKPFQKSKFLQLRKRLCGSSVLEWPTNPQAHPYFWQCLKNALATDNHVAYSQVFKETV

human TLR8 = biological target: T2, human TLR8 (Homo sapiens, UniProt Q9NR97); assay: NF-κB induction in HEK-Blue reporter cells transfected with human TLR8; conditions: HEK-293 cells transfected with human TLR8, SEAP reporter, 18–24 h; read-out: EC50, half maximal activation of NF-κB (hTLR-8) (converted)
T2 construct: host or cells: HEK293 (HEK-Blue)
T2 sequence (Q9NR97 27-1041): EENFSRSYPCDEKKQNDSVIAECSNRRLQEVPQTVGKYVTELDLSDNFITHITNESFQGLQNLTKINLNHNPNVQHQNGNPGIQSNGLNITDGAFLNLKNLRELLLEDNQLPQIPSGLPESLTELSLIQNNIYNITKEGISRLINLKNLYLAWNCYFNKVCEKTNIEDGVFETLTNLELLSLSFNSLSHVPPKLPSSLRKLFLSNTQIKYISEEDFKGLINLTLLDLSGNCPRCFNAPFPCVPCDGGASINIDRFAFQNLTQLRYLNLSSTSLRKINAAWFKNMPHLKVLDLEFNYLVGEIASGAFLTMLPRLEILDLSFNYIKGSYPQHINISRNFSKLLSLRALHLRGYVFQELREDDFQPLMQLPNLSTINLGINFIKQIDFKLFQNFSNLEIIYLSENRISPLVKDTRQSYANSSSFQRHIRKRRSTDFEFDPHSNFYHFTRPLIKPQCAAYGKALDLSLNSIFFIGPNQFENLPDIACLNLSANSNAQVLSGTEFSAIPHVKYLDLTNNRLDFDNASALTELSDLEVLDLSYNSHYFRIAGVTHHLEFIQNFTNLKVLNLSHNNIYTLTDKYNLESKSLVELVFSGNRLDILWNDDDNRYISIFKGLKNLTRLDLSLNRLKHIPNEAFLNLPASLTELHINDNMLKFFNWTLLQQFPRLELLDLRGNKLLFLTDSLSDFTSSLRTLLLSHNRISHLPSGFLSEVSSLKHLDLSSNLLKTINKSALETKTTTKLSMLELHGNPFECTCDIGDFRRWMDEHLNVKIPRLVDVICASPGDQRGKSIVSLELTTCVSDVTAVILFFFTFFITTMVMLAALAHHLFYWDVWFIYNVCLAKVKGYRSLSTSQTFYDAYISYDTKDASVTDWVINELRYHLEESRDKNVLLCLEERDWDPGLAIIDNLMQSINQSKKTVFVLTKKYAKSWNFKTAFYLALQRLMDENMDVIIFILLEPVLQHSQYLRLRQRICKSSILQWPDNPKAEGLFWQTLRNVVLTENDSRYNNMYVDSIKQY

In the case of `CCCCc1nc2c(N)nc3ccccc3c2n1CC(C)(C)O` [Hybrid-2], the IL-1β production (human newborn cord blood; 0.01 µM) is reported as 15.63 pg/mL, the TNF-α production (human newborn cord blood; 0.01 µM) is reported as 193.14 pg/mL and the IL-1β production (human newborn cord blood; 0.03 µM) is reported as 15.63 pg/mL. It also gave a TNF-α production (human newborn cord blood; 0.03 µM) of 189.84 pg/mL, an IL-1β production (human newborn cord blood; 0.1 µM) of 129.48 pg/mL and a TNF-α production (human newborn cord blood; 0.1 µM) of 464.55 pg/mL. It also gave an IL-1β production (human newborn cord blood; 0.3 µM) of 437.70 pg/mL, a TNF-α production (human newborn cord blood; 0.3 µM) of 1998.77 pg/mL and a TNF-α production (human newborn cord blood; 1 µM) of 3750.42 pg/mL. For the same molecule, the IL-1β production (human newborn cord blood; 10 µM) was 1887.36 pg/mL, the TNF-α production (human newborn cord blood; 10 µM) was 10395.78 pg/mL and the “Efficacy in inducing TNF and IL-1β production compared to R848” value (human newborn cord blood; neonatal blood, 0.1 μM and 1 μM, N = 6, p < 0.05) was “greater efficacy”. The IL-1β production ([1]; 0.01 µM) was 15.63 pg/mL, the TNF-α production ([1]; 0.01 µM) was 23.44 pg/mL and the IL-1β production ([1]; 0.03 µM) was 15.63 pg/mL. The TNF-α production ([1]; 0.03 µM) was 102.83 pg/mL, the IL-1β production ([1]; 0.1 µM) was 37.42 pg/mL and the TNF-α production ([1]; 0.1 µM) was 1427.29 pg/mL. For the same molecule, the IL-1β production ([1]; 0.3 µM) was 427.95 pg/mL, the TNF-α production ([1]; 0.3 µM) was 6362.58 pg/mL and the IL-1β production ([1]; 10 µM) was 2972.60 pg/mL. For the same molecule, the TNF-α production ([1]; 10 µM) was 20983.61 pg/mL, the “Efficacy in stimulating TNF and IL-1β production compared to R848” value ([1]; adult blood, 0.1 μM and 1 μM respectively, N = 6, p < 0.05) was “greater efficacy” and the EC50 [2] was 300 nM.
For `CCCCc1nc2c(N)nc3ccccc3c2n1Cc1cccc(CN)c1` [Meta-amine], the EC50 (human TLR7) was 81.8 nM and the EC50 (human TLR8) was 92.9 nM.
